Source: patent US20210230248A1, “Multivalent pharmacophores for high avidity and overexpressed-target specific binding and uses thereof” (priority 2020, published 2021)
Blank lines part the entries; values can stand above or below the molecule they belong to.

Columns and labels:
[1] = biological target: T1, Human recombinant PD-L1 (Homo sapiens); assay: Binding to PD-L1 coated MSD plate; conditions: test items at 5 nM; plate coated at 40 nM; FIG. 4A
T1 construct: purchased Abcam
Method: (§1) The plates were shaken for another 1 h at room temperature. After washing, SULFO-TAG anti-mouse IgG antibody was added into the plates. The plates were further incubated for 1 h and then washed and read after adding 1×MSD Read Buffer. […] The wells without coating were used as background binding.

[2] = biological target: T2, Human recombinant PD-L2 (Homo sapiens, UniProt Q9BQ51); assay: Binding to PD-L2 coated MSD plate; conditions: test items at 5 nM; plate coated at 40 nM; FIG. 4B
T2 construct: purchased Abcam
T2 sequence (Q9BQ51 20-273): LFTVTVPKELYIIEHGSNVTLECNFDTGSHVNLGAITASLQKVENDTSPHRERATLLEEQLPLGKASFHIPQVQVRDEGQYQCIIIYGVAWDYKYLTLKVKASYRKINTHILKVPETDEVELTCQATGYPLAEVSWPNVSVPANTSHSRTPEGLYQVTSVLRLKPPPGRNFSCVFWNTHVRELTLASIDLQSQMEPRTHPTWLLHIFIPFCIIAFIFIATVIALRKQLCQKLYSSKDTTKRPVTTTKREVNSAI
Method: Human recombinant PD-L1, PD-L2 and CD80 (Abcam) at the concentration of 40 nM were coated onto wells of 96-well MSD plate (small spot, 40 μL/well) overnight at 4° C., and then blocked with 3% MSD Blocking Buffer for 1 h. […] The plates were shaken for another 1 h at room temperature. After washing, SULFO-TAG anti-mouse IgG antibody was added into the plates. The plates were further incubated for 1 h and then washed and read after adding 1×MSD Read Buffer. SULFO-TAG anti-human IgG antibody was added into the plate of PD-L1 Fc chimera proteins. The wells without coating were used as background binding.

[3] = system: Human recombinant CD80; assay: Binding to CD80 coated MSD plate; conditions: competitive binding against CD80 to PD-L1
Method: as §1

[4] = biological target: T1, Human recombinant PD-L1 (Homo sapiens); assay: Selective binding to high-density PD-L1 coated plates; conditions: 5 nM; PD-L1 coating from 80 nM, 1:1 dilution, 8 titrations; FIG. 5
Method: Human recombinant PD-L1 was coated onto wells of MSD 96-well plate with the concentrations starting from 80 nM and 1:1 dilution for 8 titrations (40 μL/well). The empty wells were added with PBS. After overnight coating at 4° C. and blocked with 3% MSD Blocking Buffer for 1 h, 4-arm PEG-2K PD-1ecto, 4-arm PEG-6K PD-1ecto, 6-arm PEG-3.4K PD-1ecto, and 6-arm PEG-10K PD-1ecto (all at 5 nM, 40 μL/well) were added into the pre-coated wells. Biotin conjugated anti-human PD-L1 antibody (clone 10F.9G2, Biolegend) was used as a control. […] After additional 1 h incubation at room temperature and washing, SULFO-TAG anti-mouse IgG antibody was added and the plate was incubated for 1 h. The plate was washed and read after adding 1× Read Buffer. For control wells (clone 10F.9G2), SULFO-TAG streptavidin was added.

[5] = biological target: T3, low PD-L1 expressing PC3 cells (Homo sapiens); assay: Competitive binding assay on low PD-L1 expressing PC3 cells (control); conditions: data not shown
T3 construct: endogenous in cells; host or cells: PC3 cells
From the text: (§2) PC3, a low PD-L1 expressing cell is used as a control.

[6] = biological target: T4, PD-L1 overexpressing SU-DHL-1 cells (Homo sapiens); assay: Competitive binding assay on PD-L1 overexpressing SU-DHL-1 cells; conditions: antibody at ~33.3 nM, assuming linear relationship
T4 construct: endogenous in cells; host or cells: SU-DHL-1 cells
Method: as §2
PE-conjugated mouse anti-human PD-L1 antibody (Clone MIN1, eBioscience) at the final concentration of 0.5 μg/100 μL (˜33.3 nM) was mixed with 4-arm PEG-2K PD-1ecto or 6-arm PEG-3.4K PD-1ecto titrated from 50 nM to 1 nM in Stain Buffer. SU-DHL-1 cells (0.5×10^6 cells) were resuspended in each titration of reagent in a final volume of 100 μL per well. After incubation for 3 h on ice with occasional mixing, the cells were washed 3 times. The amount of anti-PD-L1 antibody bound to the cells was quantified by the fluorescence intensity of PE using flow cytometry.

binding to PD-L1 coated plate [1]: bound
binding to PD-L2 coated plate [2]: bound
inhibition of PD-L1 Fc chimera binding to CD80 plate [3]: substantially inhibited
binding to low PD-L1 expressing PC3 cells [5]: undetectable
competitive binding against PD-L1 blocking antibody on PC3 cells [5]: little competitive binding
B1: 4-arm PEG PD-1ecto: tetravalent PEG PD-1 ectodomain pharmacophore, arm length not stated at the place (2K and 6K forms made) (conjugate)
chain: PGWFLDSPDRPWNPPTFSPALLVVTEGDNATFTCSFSNTSESFVLNWYRMSPSNQTDKLAAFPEDRSQPGQDCRFRVTQLPNGRDFHMSVVRARRNDSGTYLCGAISLAPKAQIKESLRAELRVTERRAEVPTAHPSPSPRPAGQFQTL
binding as a function of PD-L1 surface density [4]: strongly selective binding to high surface density of PD-L1

binding to PD-L1 coated plate [1]: highest binding
binding to PD-L2 coated plate [2]: highest binding
fold more potent than the PD-L1 blocking antibody [6]: about 3.8 fold
binding to low PD-L1 expressing PC3 cells [5]: undetectable
competitive binding against PD-L1 blocking antibody on PC3 cells [5]: little competitive binding
B2: 6-arm PEG PD-1ecto: hexavalent PEG PD-1 ectodomain pharmacophore, arm length not stated at the place (3.4K and 10K forms made) (conjugate)
chain: B1 chain
binding as a function of PD-L1 surface density [4]: strongly selective binding to high surface density of PD-L1
